Where “and” joins values, the source holds several entries; their conditions need not be identical. Equal values may be shown once. Read-outs that look alike come from different tables or passages of the source.
Experiments:
ABAP1 = ABAP1 (Hordeum vulgare, UniProt Q9LLX3); assay: ABA binding assay with purified recombinant ABAP1; set-up: species or system barley
Procedure: Purified ABAP1 protein was used to determine the ABA binding activity as described (15) with some modifications as follows. Generally, the incubation medium consisted of 25 mM Tris buffer, pH 7.3 (except when testing ABA binding at different pH) and 250 mM sucrose, 5 mM MgCl2, 3+1 mM CaCl2, 50 nM ^3H^+-ABA (except when the kinetics of ABAP1 was determined), and 10 μg ABAP1. Other additions or changes to the incubation system are discussed in the figure legends. All binding assays were carried out at a final volume of 150 μL at 4° C. for 1 hour. The mixture was then rapidly filtered through a nitrocellulose membrane, washed with 5 mL, of cold 0.5× binding buffer by rapid filtration, dried in air and counted in a scintillation counter (Wallac 1414 WinSpectral v1.40). To ensure the efficiency of membrane washing and that only bound ^3H^+-ABA was counted, aliquots of the binding mixtures were mixed with a 100 μL of 0.5% (w/v) DCC (Dextran T70-coated charcoal) to remove any free ABA by adsorption. […] The resulted supernatant was then counted in a scintillation counter to determine the binding activity. […] Specific binding (SB) was calculated by taking the difference for assays with only ^3H^+-ABA (total binding) and assays that also contain 5 μM (+) ABA added at the same time as ^3H^+-ABA (non-specific binding). […]

Sequences of proteins named here, by UniProt entry; tags and fusion partners are left off.
UniProt Q9LLX3, entry or part of it: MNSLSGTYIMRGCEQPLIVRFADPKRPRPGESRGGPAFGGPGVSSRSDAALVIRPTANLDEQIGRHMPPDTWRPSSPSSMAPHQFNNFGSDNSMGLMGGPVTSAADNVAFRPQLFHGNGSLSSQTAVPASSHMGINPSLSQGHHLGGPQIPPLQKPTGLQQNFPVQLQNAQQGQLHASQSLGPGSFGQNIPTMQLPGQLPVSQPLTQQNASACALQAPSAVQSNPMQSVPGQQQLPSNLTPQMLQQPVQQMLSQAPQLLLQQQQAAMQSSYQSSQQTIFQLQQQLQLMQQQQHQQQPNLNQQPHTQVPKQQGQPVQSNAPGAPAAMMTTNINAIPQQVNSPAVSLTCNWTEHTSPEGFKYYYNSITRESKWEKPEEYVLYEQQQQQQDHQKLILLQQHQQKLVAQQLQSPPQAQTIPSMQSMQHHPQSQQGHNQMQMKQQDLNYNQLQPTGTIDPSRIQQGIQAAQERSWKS

FCA protein = target: T1, FCA protein (Arabidopsis thaliana, UniProt O04425); assay: ABA binding assay with purified recombinant FCA; set-up: Kd; other: analog added in higher concentrations than 3H+-ABA (20-5000 nM); other: Scatchard analysis, r^2=0.88; other: in presence of 5 μM unlabelled (+)-ABA; pH range of maximum; fused on or other part: GST fused on for purification; conditions: Scatchard analysis of saturation binding
T1 sequence (O04425 1-747 isoform O04425-1): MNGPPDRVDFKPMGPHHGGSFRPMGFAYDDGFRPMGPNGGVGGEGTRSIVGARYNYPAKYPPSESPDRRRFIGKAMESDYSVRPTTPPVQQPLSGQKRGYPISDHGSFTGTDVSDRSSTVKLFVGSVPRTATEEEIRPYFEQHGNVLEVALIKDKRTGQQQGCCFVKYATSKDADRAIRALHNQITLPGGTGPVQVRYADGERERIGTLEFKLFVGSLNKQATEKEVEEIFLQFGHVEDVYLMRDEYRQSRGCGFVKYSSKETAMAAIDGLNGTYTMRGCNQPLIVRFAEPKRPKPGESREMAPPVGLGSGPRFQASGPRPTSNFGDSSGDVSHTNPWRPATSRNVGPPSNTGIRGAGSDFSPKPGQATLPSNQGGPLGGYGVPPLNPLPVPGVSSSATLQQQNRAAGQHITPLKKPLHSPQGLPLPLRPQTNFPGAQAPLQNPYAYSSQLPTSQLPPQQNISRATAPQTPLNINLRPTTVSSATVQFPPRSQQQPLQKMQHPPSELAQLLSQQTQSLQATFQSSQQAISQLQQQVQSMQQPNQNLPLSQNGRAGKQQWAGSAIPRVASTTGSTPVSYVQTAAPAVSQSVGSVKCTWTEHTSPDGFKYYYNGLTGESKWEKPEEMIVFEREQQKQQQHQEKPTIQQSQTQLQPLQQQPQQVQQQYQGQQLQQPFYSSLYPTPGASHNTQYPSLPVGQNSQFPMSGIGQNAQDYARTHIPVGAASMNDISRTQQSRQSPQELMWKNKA
Procedure: Crude lysate and purified FCA protein were used to determine the ABA binding activity as described^V. Briefly, the incubation medium consisted of 12.5 mM Tris-HCl, pH 7.3 containing 50 nm ^3H^+-ABA (except when the kinetics of FCA was determined), and 10 μg purified FCA protein or the equivalent of 50 μg crude lysate. […] The mixture was then rapidly filtered through a nitrocellulose membrane, washed with 0.5× binding buffer, air dried and counted in a scintillation counter (Wallac 1414 WinSpectral v1.40). Heat denatured FCA protein was used to used determine the protein nature of the FCA and BSA was used as a control. All binding studies were carried out using three different GST affinity chromatography protein purifications with triplicate assays for each purification. For the competitive assays, ABA analogs (−)-ABA and trans-ABA were added at the same time as ^3H^+-ABA at different concentrations (20-5000 nM). Specific binding was calculated by taking the difference for assays with only ^3H^+-ABA (total binding) and assays that also contained 5 μM (±)-ABA added at the same time as ^3H^+-ABA (non-specific binding). Binding was represented as the number of moles of ^3H^+-ABA per mole of FCA protein.

Substance: abscisic acid [ABA]
- Kd (ABAP1; Scatchard plot, one binding site): 0.028 µM and ~0.028 µM
- Kd (ABAP1; read-out: dissociation constant Kd, Scatchard plot analysis, 3H+-ABA saturation binding): ~0.028 µM
- Kd (FCA protein): 0.019 µM and ~0.019 µM

Reference: patent US20080235828A1, “PLANT PROTEINS HAVING AN ABSCISIC ACID BINDING SITE AND METHODS OF USE” (University of Manitoba, priority 2004, published 2008)
